According to US7431914B2, “Contrast agent” (GE Healthcare AS, priority 2003, dated 2008):

Target: T1, AT1 receptor (Homo sapiens, UniProt P30556)
T1 construct: expressed in transfected cells; host or cells: CHO cells (membranes)
Experiment: Ki determination, competition binding assay for AT1 with 125I-Sar1-Ile8-Angiotensin II
Settings: competition with 125I-Sar1-Ile8-Angiotensin II; membranes from CHO cells expressing the AT1 receptor; Cheng-Prussoff

Q: For “Losartan-Leu-Diglycoloyl-PEG(4)-Diglycolyl-cPn216 [Example 1]”, which Ki is on record?
A: 0.5 nM
